# According to patent publication US20110212484A1, “In Vitro Model of Focal Ischemia” (priority 2008, published 2011):
# Tested on: cortical neurons
# Assay: Focal glutamate perfusion of brain slices, intracellular recordings of membrane potential
# Conditions: 20 mM glutamate, neuron located 0.9 mm from the focal perfusion
compound,measurement,value
N[C@@H](CCC(=O)O)C(=O)O [glutamate],membrane potential of neuron (depolarization),depolarization was delayed
